Assay results taken from US20220273926A1, “DRUG DELIVERY USING MICRONEEDLE ARRAYS” (BOARD OF REGENTS OF THE UNIVERSITY OF NEBRASKA, priority 2019, published 2022).
Like-named read-outs stand apart in the source and are kept apart here.

Assays:
[1] = From the text: Agarose and other agar-based hydrogels have been widely used as skin models in previous studies^37,38. […] The intensity is also plotted quantitatively against the depth of penetration (FIG. 15C).
[2] = after 180 min, target 20 μg/mL
From the text: The intradermal drug delivery kinetics were further evaluated by developing an in vitro model mimicking the structure of wounds in which eschar and granulation tissue separates the endothelial cells from the outside environment. This model, illustrated schematically in FIG. 2a, consisted of a cell culture insert with a porous membrane covered by agarose (3% w/v) with ˜2 mm thickness, and the bottom well represented the environment of endothelial cells.
Assessment of release kinetics: To mimic the chronic wound tissue, 12-well cell culture inserts were filled with 150 μL of 3% (w/v) agarose. […] Inserts were divided into 3 groups (4 replicate/group) with respect to the method of delivery, including topical, MNA, and LJI. To measure the concentration of the delivered solution, at each time point 100 μL was removed and then replaced with the same volume of fresh PBS. After collecting all samples, the concentration was measured by a plate reader (Cytation 5, BioTek) followed by data analysis to extract the related release graphs. In the case of BSA, measurement process was followed based on manufacturer's protocol.

## CCN(CC)c1ccc2c(-c3ccccc3C(=O)O)c3ccc(=[N+](CC)CC)cc-3oc2c1.[Cl-] [rhodamine B]
[1]; LJI
  distribution profile in the skin model: deepest penetration of the dye
[1]; MNAs, compared to topical administration
  distribution profile in the skin model: delivered the solution deeper into the skin model while showing a relatively uniform distribution area
[2]; LJI
  delivered into the bottom chamber (overall efficiency of delivery): 75%
[2]; MNAs
  delivered into the bottom chamber (overall efficiency of delivery): ~60%
[2]; topical (TOP)
  delivered into the bottom chamber (overall efficiency of delivery): less than 15%
